Results as given in patent US9657059B2, “Immune system modulators” (Canimguide Therapeutics AB, priority 2013, dated 2017).

What was measured:
[1] = test system: NK-cell cytotoxicity against K562 target cells; assay type: cell-based, human
Procedure: The ability of specific albumin fragments to impact NK-cell cytotoxicity was also evaluated. In these experiments, synthetic peptides corresponding to albumin fragments (P3028, P3026, and P3027) (SEQ ID NOs: 185, 183, and 184, respectively) were prepared and the amount of lysis of K562 target cells was assessed (see Example 4).

K562 target cells = assay: NK-cell cytotoxicity (NKTEST); assay type: cell-based, human; details: 10 ug/ml, effector:target 40:1, four donors
Procedure: The NK-cell cytotoxic activity of blood mononuclear cells from four healthy donors was tested. Mononuclear cells were separated by standard Ficoll-paque Plus (Pharmacia AB, Sweden) density gradient centrifugation from heparinized blood obtained from healthy donors. NK cell cytotoxic activity of the mononuclear cells was then tested using a commercial kit (NKTEST, Orpegen Pharma GmblI, Heidelberg, Germany) following the manufacturers protocol. Briefly, the kit contains cryopreserved, NK-sensitive target cells (K562) labeled with a lipophilic green fluorescent membrane dye, which enables discrimination of effector and target cells. After incubation with effector cells, killed target cells are identified by a DNA-stain, which penetrates and specifically stain the nuclei of dead target cells. This way the percentage of killed targets can be determined by flow cytometry. The mononuclear cells were preincubated for 30 min at 37° C. with the indicated peptides (peptides have been described previously) at 10 ug/ml. Target cells were then added, giving an effector:target ratio of 40:1, and the cell mixture incubated at 37° C. for 3-4 hours. Samples were analysed on a FACSCalibur (BD Biosciences, San Jose, Calif.).

CC[C@H](C)[C@H](NC(=O)[C@H](CC(C)C)NC(=O)[C@H](CC(N)=O)NC(=O)[C@H](CCC(N)=O)NC(=O)[C@@H]1CCCN1C(=O)[C@H](CCC(=O)O)NC(=O)[C@H](CCC(=O)O)NC(=O)[C@@H](NC(=O)[C@H](CC(C)C)NC(=O)[C@@H]1CCCN1C(=O)[C@H](CCCCN)NC(=O)[C@H](Cc1ccccc1)NC(=O)[C@H](CCC(=O)O)NC(=O)[C@H](CC(=O)O)NC(=O)[C@H](Cc1ccccc1)NC(=O)[C@@H](N)C(C)C)C(C)C)C(=O)N[C@@H](CCCCN)C(=O)O [P3028]
effect on NK-cell cytotoxicity [1]: caused a reduction in NK-cell cytotoxicity | effect on NK-cell cytotoxicity (percent specific lysis) (K562 target cells): reduced the percent specific lysis of K562 target cells by all four donors
